Assay results as given in BindingDB's records for doi:10.1021/jm950711l (University of California, 1996).

Experiment: Binding to ryanodine receptor in canine cardiac membranes.

CC1CCC2(O)C3(C)CC4(O)OC2(C1O)C1(O)C3(O)C(OC(=O)c2ccc[nH]2)C(O)(C(C)C)C41C (stereo unspecified) [Ryanodine Derivative]
Ki: 1.8 nM
